Here are results for one substance from US12648945B2 (dated 2026).

Sequences of proteins named here, by UniProt entry; tags and fusion partners are left off.
UniProt Q07817, whole entry: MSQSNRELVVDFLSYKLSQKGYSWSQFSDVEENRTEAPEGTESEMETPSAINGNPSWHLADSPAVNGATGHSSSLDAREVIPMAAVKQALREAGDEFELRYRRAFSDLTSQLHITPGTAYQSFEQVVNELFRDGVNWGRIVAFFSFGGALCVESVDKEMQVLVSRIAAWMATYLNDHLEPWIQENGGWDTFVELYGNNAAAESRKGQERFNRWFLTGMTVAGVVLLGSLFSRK
UniProt P10415, whole entry: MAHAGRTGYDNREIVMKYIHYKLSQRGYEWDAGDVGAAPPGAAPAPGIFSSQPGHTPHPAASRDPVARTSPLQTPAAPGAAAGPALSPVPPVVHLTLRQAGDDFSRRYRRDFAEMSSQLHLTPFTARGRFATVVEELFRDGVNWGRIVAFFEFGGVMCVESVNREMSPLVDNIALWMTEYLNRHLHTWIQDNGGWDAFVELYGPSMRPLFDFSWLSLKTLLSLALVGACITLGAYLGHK

For one experiment, the target named is Bcl-XL (Homo sapiens, UniProt Q07817). Description: Fluorescence polarization competitive binding assay, Bcl-XL (Flu-BAK probe). To be noted: read-out: Inhibitory Activity IC50 Bcl-XL; FP competition, 10 nM protein, 2 nM Flu-BAK.
Another experiment has as its target Bcl-2 (Homo sapiens, UniProt P10415).

Take “2-((1H-pyrrolo[2,3-b]pyridin-5-yl)oxy)-4-(1-((6- (4-chlorophenyl)-2-oxaspiro[3.5]non-6-en-7- yl)methyl)-1,2,3,6-tetrahydropyridin-4-yl)-N-((3- nitro-4-(((tetrahydro-2H-pyran-4- yl)methyl)amino)phenyl)sulfonyl)benzamide [Compound 10]”: the IC50 was 20.6 nM at Bcl-XL and 1.9 nM against Bcl-2.
